ChEMBL document CHEMBL4425138, “Probing Lipophilic Adamantyl Group as the P1-Ligand for HIV-1 Protease Inhibitors: Design, Synthesis, Protein X-ray Structural Studies, and Biological Evaluation” (J Med Chem, 2016)

Test system: Human immunodeficiency virus 1
Assay: Ratio of IC50 for HIV1 LA1 to Ki for HIV1 protease

Row | SMILES | Ratio
1 | COc1ccc(S(=O)(=O)N(Cc2ccccc2)C[C@@H](O)[C@H](CC23CC4CC(CC(C4)C2)C3)NC(=O)O[C@H]2CO[C@H]3OCC[C@H]32)cc1 | 36
2 | COc1ccc(S(=O)(=O)N(CC(C)C)C[C@@H](O)[C@H](CC23CC4CC(CC(C4)C2)C3)NC(=O)O[C@H]2CO[C@H]3OCC[C@H]32)cc1 | 67
